Target: T1, Cbl-B (Homo sapiens, UniProt Q13191)
T1 construct: MSD-Based Assay for Degradation of Cbl-B in THP-1 Cells; endogenous in cells; host or cells: THP-1 (title) / Jurkat (protocol text)
Experiment: MSD-based assay for degradation of Cbl-B in THP-1 cells
Assay type: cell-based
Conditions: Jurkat cells seeded (heading: THP-1 cells), 24 hours incubation, MSD readout
Protocol: MSD-Based Assay for Degradation of Cbl-B in THP-1 Cells
Assay plates were then shaken at 600 rpm for 5 minutes, followed by incubation for 24 hours in the 37° C. TC incubator. […] Cell debris was then spun down at maximum speed (about 3200 g) for 30 min and lysates frozen in the −80° C. fridge. Meanwhile, MSD plates (L15XA-3) were coated overnight at 4° C. with 1 ug/mL capture antibody (Anti-Cbl-B antibody, 246C5a and Mouse mAB, ab54362). […] Blocking buffer was 3% Blocker A (MSD, R93BA-4) in TBST. Plates were washed 3× with 150 ul/well of 1×TBST and sample lysates (70 ul/well) then added, followed by shaking for 1 hr at RT, 600 rpm. […] Plates were again washed 3× with 150 ul/well of 1×TBST, followed by addition of Secondary Detection antibody, SULFO-TAG anti-species antibody (Anti Rabbit Antibody (R32AB-5) MSD, R32AB-1) at a final concentration of 1 ug/ml and 25 uL/well, followed by shaking for 1 hr at RT, 600 rpm. Plates were again washed 3× with 150 ul/well of 1×TBST, followed by addition of 1×MSD reading buffer (MSD, R92TC-2), 150 ul/well, diluted from 4× with water.
Compound Dmax were binned into A through D as follows: A indicates >70%, B indicates 50-70%, C indicates 30-50%, D indicates <30%.

By UniProt entry, the sequences of proteins in these tests, tags left out.
UniProt Q13191, whole entry: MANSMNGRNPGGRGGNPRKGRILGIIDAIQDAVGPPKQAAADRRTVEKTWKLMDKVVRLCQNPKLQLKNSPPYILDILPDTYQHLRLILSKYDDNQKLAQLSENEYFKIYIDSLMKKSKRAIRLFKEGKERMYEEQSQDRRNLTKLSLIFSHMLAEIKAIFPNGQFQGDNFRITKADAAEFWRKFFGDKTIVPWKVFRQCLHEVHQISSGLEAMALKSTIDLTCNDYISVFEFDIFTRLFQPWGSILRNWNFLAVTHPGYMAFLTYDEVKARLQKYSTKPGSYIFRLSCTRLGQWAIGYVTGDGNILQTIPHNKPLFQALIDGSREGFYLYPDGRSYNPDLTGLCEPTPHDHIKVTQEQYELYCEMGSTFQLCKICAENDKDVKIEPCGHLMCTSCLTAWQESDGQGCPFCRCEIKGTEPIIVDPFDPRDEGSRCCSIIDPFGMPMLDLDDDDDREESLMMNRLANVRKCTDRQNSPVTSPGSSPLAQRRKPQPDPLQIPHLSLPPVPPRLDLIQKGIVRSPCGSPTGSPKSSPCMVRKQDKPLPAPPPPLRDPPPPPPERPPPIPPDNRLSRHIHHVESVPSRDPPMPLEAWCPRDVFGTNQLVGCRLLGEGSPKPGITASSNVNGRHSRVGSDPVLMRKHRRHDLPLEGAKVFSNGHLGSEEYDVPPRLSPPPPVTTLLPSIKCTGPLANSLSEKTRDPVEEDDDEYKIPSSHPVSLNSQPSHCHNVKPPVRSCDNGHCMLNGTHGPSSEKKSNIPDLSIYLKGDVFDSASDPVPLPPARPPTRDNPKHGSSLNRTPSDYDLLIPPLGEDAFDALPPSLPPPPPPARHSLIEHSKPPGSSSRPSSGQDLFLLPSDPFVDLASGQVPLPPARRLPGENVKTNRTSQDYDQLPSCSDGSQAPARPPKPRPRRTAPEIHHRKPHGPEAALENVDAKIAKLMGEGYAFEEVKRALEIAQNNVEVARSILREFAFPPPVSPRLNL

Compound | Dmax [%]
CN(CCO[C@@H]1CCCN(Cc2cc(C(F)(F)F)c3cn(-c4cccc([C@H](c5nncn5C)C5CCC5)c4)c(=O)n3c2)C1)C(=O)c1ccc(N2CCN(c3ccc4c(c3)CN([C@H]3CCC(=O)NC3=O)C4=O)CC2)cc1 [Compound 104] | 50 to 70
CN(CCO[C@H]1CCCN(Cc2cc(C(F)(F)F)c3cn(-c4cccc([C@H](c5nncn5C)C5CCC5)c4)c(=O)n3c2)C1)C(=O)c1ccc(N2CCN(c3ccc4c(c3)CN([C@H]3CCC(=O)NC3=O)C4=O)CC2)cc1 [Compound 106] | 50 to 70

From patent US20250340552A1, “COMPOUNDS, COMPOSITIONS AND METHODS OF TREATING DISORDERS” (HOTSPOT THERAPEUTICS, INC., priority 2022, published 2025)
